Data taken from patent publication US9694016B2 (Novartis AG, priority 2013, dated 2017).

Chains of the proteins cited; added tags and fusions are not shown.
UniProt P04049, whole entry Y340E/Y341E: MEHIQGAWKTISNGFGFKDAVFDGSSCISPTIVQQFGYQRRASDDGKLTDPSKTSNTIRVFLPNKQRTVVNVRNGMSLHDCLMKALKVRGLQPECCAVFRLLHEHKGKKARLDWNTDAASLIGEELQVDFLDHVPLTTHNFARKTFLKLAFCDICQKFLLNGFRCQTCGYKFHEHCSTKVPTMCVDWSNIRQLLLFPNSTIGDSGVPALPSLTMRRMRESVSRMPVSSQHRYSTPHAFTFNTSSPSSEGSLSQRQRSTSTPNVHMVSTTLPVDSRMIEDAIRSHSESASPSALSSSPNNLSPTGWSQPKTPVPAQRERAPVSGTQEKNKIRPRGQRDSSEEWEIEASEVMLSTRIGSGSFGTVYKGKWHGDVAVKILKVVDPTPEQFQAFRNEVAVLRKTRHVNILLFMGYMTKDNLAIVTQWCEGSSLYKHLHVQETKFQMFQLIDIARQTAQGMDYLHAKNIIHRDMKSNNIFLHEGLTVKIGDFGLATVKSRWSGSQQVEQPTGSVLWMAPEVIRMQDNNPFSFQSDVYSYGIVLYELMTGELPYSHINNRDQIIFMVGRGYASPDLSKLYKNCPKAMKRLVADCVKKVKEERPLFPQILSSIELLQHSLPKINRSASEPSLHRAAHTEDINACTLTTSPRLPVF

Biological target: C-Raf FL (full-length C-Raf protein, Y340E and Y341E activating mutations) (Homo sapiens (Human), UniProt P04049, Y340E/Y341E)
Assay type: biochemical
Settings: AlphaScreen, 60 min pre-incubation, reaction 1 hour at room temperature; read-out: c-Raf FL IC-50

| Compound | IC50 [nM] |
| --- | --- |
| Cc1ncc(NC(=O)c2cc(C(F)(F)F)ccn2)cc1-c1cnc(OC2CCOCC2)c(N2CCOCC2)c1 [Example 942, N-(2-methyl-5′-morpholino-6′-((tetrahydro-2H-pyran-4-yl)oxy)-[3,3′-bipyridin]-5-yl)-4-(trifluoromethyl)picolinamide] | 0.59 |
| Cc1ncc(NC(=O)c2cc(C(C)(C)C#N)ccn2)cc1-c1cnc(OC2CCOCC2)c(N2CCOCC2)c1 [Example 943, 4-(2-cyanopropan-2-yl)-N-(2-methyl-5′-morpholino-6′-((tetrahydro-2H-pyran-4-yl)oxy)-[3,3′-bipyridin]-5-yl)picolinamide] | 2.69 |
| Cc1ccc(NC(=O)c2ccnc(C(C)(F)F)c2)cc1-c1cnc(OC(C)C)c(N2CCOCC2)c1 [Example 945, 2-(1,1-difluoroethyl)-N-(3-(6-isopropoxy-5-morpholinopyridin-3-yl)-4-methylphenyl)isonicotinamide] | 0.53 |
| Cc1ccc(NC(=O)c2ccnc(C(C)(C)O)c2)cc1-c1cnc(OC(C)C)c(N2CCOCC2)c1 [Example 947, 2-(2-hydroxypropan-2-yl)-N-(3-(6-isopropoxy-5-morpholinopyridin-3-yl)-4-methylphenyl)isonicotinamide] | 0.61 |
| Cc1ccc(NC(=O)c2cc(C(C)(C)C#N)ccn2)cc1-c1cnc(OC(C)C)c(N2CCOCC2)c1 [Example 948, 4-(2-cyanopropan-2-yl)-N-(3-(6-isopropoxy-5-morpholinopyridin-3-yl)-4-methylphenyl)picolinamide] | 0.64 |
| Cc1ccc(NC(=O)c2cc(C(C)(C)O)ccn2)cc1-c1cnc(OC(C)C)c(N2CCOCC2)c1 [Example 949, 4-(2-hydroxypropan-2-yl)-N-(3-(6-isopropoxy-5-morpholinopyridin-3-yl)-4-methylphenyl)picolinamide] | 1.38 |
| Cc1ccc(NC(=O)c2ccnc(S(C)(=O)=O)c2)cc1-c1cnc(OC(C)C)c(N2CCOCC2)c1 [Example 950, N-(3-(6-isopropoxy-5-morpholinopyridin-3-yl)-4-methylphenyl)-2-(methylsulfonyl)isonicotinamide] | 0.21 |
| Cc1ccc(NC(=O)c2cncc(C(F)(F)F)c2)cc1-c1cnc(OC(C)C)c(N2CCOCC2)c1 [Example 951, N-(3-(6-isopropoxy-5-morpholinopyridin-3-yl)-4-methylphenyl)-5-(trifluoromethyl)nicotinamide] | 0.11 |
| Cc1ncc(NC(=O)c2ccnc(C(C)(F)F)c2)cc1-c1cnc(OC(C)C)c(N2CCOCC2)c1 [Example 952, 2-(1,1-difluoroethyl)-N-(6′-isopropoxy-2-methyl-5′-morpholino-[3,3′-bipyridin]-5-yl)isonicotinamide] | 0.71 |
| Cc1ncc(NC(=O)c2ccnc(C(C)(C)F)c2)cc1-c1cnc(OC(C)C)c(N2CCOCC2)c1 [Example 953, 2-(2-fluoropropan-2-yl)-N-(6′-isopropoxy-2-methyl-5′-morpholino-[3,3′-bipyridin]-5-yl)isonicotinamide] | 1.36 |
| Cc1ncc(NC(=O)c2ccnc(C(C)(C)C#N)c2)cc1-c1cnc(OC(C)C)c(N2CCOCC2)c1 [Example 954, 2-(2-cyanopropan-2-yl)-N-(6′-isopropoxy-2-methyl-5′-morpholino-[3,3′-bipyridin]-5-yl)isonicotinamide] | 2.43 |
| Cc1ncc(NC(=O)c2ccnc(C(C)(C)O)c2)cc1-c1cnc(OC(C)C)c(N2CCOCC2)c1 [Example 955, 2-(2-hydroxypropan-2-yl)-N-(6′-isopropoxy-2-methyl-5′-morpholino-[3,3′-bipyridin]-5-yl)isonicotinamide] | 8.01 |
| Cc1ncc(NC(=O)c2cc(C(C)(F)F)ccn2)cc1-c1cnc(OC(C)C)c(N2CCOCC2)c1 [Example 956, 4-(1,1-difluoroethyl)-N-(6′-isopropoxy-2-methyl-5-morpholino-[3,3′-bipyridin]-5-yl)picolinamide] | 1.16 |
| Cc1ncc(NC(=O)c2cc(C(C)(C)F)ccn2)cc1-c1cnc(OC(C)C)c(N2CCOCC2)c1 [Example 957, 4-(2-fluoropropan-2-yl)-N-(6′-isopropoxy-2-methyl-5′-morpholino-[3,3′-bipyridin]-5-yl)picolinamide] | 2.41 |
| Cc1ncc(NC(=O)c2cc(C(C)(C)O)ccn2)cc1-c1cnc(OC(C)C)c(N2CCOCC2)c1 [Example 959, 4-(2-hydroxypropan-2-yl)-N-(6′-isopropoxy-2-methyl-5′-morpholino-[3,3′-bipyridin]-5-yl)picolinamide] | 6.29 |
| Cc1ncc(NC(=O)c2cncc(C(F)(F)F)c2)cc1-c1cnc(OC(C)C)c(N2CCOCC2)c1 [Example 960, N-(6′-isopropoxy-2-methyl-5′-morpholino-[3,3′-bipyridin]-5-yl)-5-(trifluoromethyl)nicotinamide] | 1.18 |
| CCOc1ncc(-c2cc(C(=O)Nc3cc(C(F)(F)F)ncc3F)ccc2C)cc1N1CCOCC1 [Example 961, 3-(6-ethoxy-5-morpholinopyridin-3-yl)-N-(5-fluoro-2-(trifluoromethyl)pyridin-4-yl)-4-methylbenzamide] | 0.7 |

| Compound | IC50 [nM] |
| --- | --- |
| Cc1ncc(NC(=O)c2cnnc(C(C)(C)C#N)c2)cc1-c1cnc(OCC(F)F)c(N2CCOCC2)c1 [Example 962, 6-(2-cyanopropan-2-yl)-N-(6′-(2,2-difluoroethoxy)-2-methyl-5′-morpholino-[3,3′-bipyridin]-5-yl)pyridazine-4-carboxamide] | 3.92 |
| Cc1ncc(NC(=O)c2ccnc(C(C)(C)F)c2)cc1-c1cnc(OC2CC3(COC3)C2)c(N2CCOCC2)c1 [Example 963, N-(6′-(2-oxaspiro[3.3]heptan-6-yloxy)-2-methyl-5′-morpholino-[3,3′-bipyridin]-5-yl)-2-(2-fluoropropan-2-yl)isonicotinamide] | 1.04 |
| Cc1ncc(NC(=O)c2ccnc(C(C)(C)O)c2)cc1-c1cnc(OC2CC3(COC3)C2)c(N2CCOCC2)c1 [Example 964, N-(6′-(2-oxaspiro[3.3]heptan-6-yloxy)-2-methyl-5′-morpholino-[3,3′-bipyridin]-5-yl)-2-(2-hydroxypropan-2-yl)isonicotinamide] | 3.17 |
| Cc1ncc(NC(=O)c2ccnc(C(F)F)c2)cc1-c1cnc(OC2CC3(COC3)C2)c(N2CCOCC2)c1 [Example 965, N-(6′-(2-oxaspiro[3.3]heptan-6-yloxy)-2-methyl-5′-morpholino-[3,3′-bipyridin]-5-yl)-2-(difluoromethyl)isonicotinamide] | 0.71 |
| Cc1ncc(NC(=O)c2ccnc(C(C)(C)C#N)c2)cc1-c1cnc(OC2CC3(COC3)C2)c(N2CCOCC2)c1 [Example 967, N-(6′-(2-oxaspiro[3.3]heptan-6-yloxy)-2-methyl-5′-morpholino-[3,3′-bipyridin]-5-yl)-2-(2-cyanopropan-2-yl)isonicotinamide] | 2.15 |
| Cc1ncc(NC(=O)c2cc(C(C)(C)F)ccn2)cc1-c1cnc(OC2CC3(COC3)C2)c(N2CCOCC2)c1 [Example 968, N-(6′-(2-oxaspiro[3.3]heptan-6-yloxy)-2-methyl-5′-morpholino-[3,3′-bipyridin]-5-yl)-4-(2-fluoropropan-2-yl)picolinamide] | 0.98 |
| Cc1ncc(NC(=O)c2cc(C(C)(C)O)ccn2)cc1-c1cnc(OC2CC3(COC3)C2)c(N2CCOCC2)c1 [Example 969, N-(6′-(2-oxaspiro[3.3]heptan-6-yloxy)-2-methyl-5′-morpholino-[3,3′-bipyridin]-5-yl)-4-(2-hydroxypropan-2-yl)picolinamide] | 4.98 |
| Cc1ncc(NC(=O)c2cc(C(C)(C)C#N)ccn2)cc1-c1cnc(OC2CC3(COC3)C2)c(N2CCOCC2)c1 [Example 970, N-(6′-(2-oxaspiro[3.3]heptan-6-yloxy)-2-methyl-5′-morpholino-[3,3′-bipyridin]-5-yl)-4-(2-cyanopropan-2-yl)picolinamide] | 2.34 |
| Cc1ncc(NC(=O)c2cc(C(C)(C)F)ccn2)cc1-c1cnc(OCCO)c(N2CCOCC2)c1 [Example 971, 4-(2-fluoropropan-2-yl)-N-(6′-(2-hydroxyethoxy)-2-methyl-5-morpholino-[3,3′-bipyridin]-5-yl)picolinamide] | 2.55 |
| Cc1ncc(NC(=O)c2cc(C(C)(C)O)ccn2)cc1-c1cnc(OCCO)c(N2CCOCC2)c1 [Example 972, N-(6′-(2-hydroxyethoxy)-2-methyl-5-morpholino-[3,3′-bipyridin]-5-yl)-4-(2-hydroxypropan-2-yl)picolinamide] | 11.8 |
| Cc1ncc(NC(=O)c2cc(C(C)(C)C#N)ccn2)cc1-c1cnc(OCCO)c(N2CCOCC2)c1 [Example 973, 4-(2-cyanopropan-2-yl)-N-(6′-(2-hydroxyethoxy)-2-methyl-5′-morpholino-[3,3′-bipyridin]-5-yl)picolinamide] | 5.6 |
| Cc1ncc(NC(=O)c2cc(C(C)(F)F)ccn2)cc1-c1cnc(OCCO)c(N2CCOCC2)c1 [Example 974, 4-(1,1-difluoroethyl)-N-(6′-(2-hydroxyethoxy)-2-methyl-5-morpholino-[3,3′-bipyridin]-5-yl)picolinamide] | 0.95 |
| CCOc1ncc(-c2cc(NC(=O)c3cccc(S(C)(=N)=O)c3)ccc2C)cc1N1CCOCC1 (stereo not drawn) [Example 975, N-(3-(6-ethoxy-5-morpholinopyridin-3-yl)-4-methylphenyl)-3-(S-methylsulfonimidoyl)benzamide] | 0.78 |
| Cc1ncc(NC(=O)c2cccc(C(O)C(F)(F)F)c2)cc1-c1cnc(OC2CCOCC2)c(N2CCOCC2)c1 (stereo not drawn) [Example 977, N-(2-methyl-5′-morpholino-6′-((tetrahydro-2H-pyran-4-yl)oxy)[3,3′-bipyridin]-5-yl)-3-(2,2,2-trifluoro-1-hydroxyethyl)benzamide] | 1.77 |
| Cc1ncc(NC(=O)c2ccnc(C(F)(F)F)c2)cc1-c1cnc(OC(F)F)c(N2CCOCC2)c1 [Example 978] | 0.74 |
| Cc1ncc(NC(=O)c2ccnc(C(C)(C)O)c2)cc1-c1cnc(OC(F)F)c(N2CCOCC2)c1 [Example 979, N-(6′-(difluoromethoxy)-2-methyl-5′-morpholino-[3,3′-bipyridin]-5-yl)-2-(2-hydroxypropan-2-yl)isonicotinamide] | 6.24 |
